Experiments:
[1] = biological target: hA2b/CHO (Homo sapiens (Human), UniProt P29275); experiment: cAMP inhibition assay in hA2b/CHO cells, 10 μM adenosine; details: read-out: cAMP & FLIPR IC50 (nM) hA2b;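 further: cells exposed to compound 30 min at 37 °C, then stimulated with adenosine a further 30 min, cAMP read after 60 min at room temperature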
[2] = biological target: mA2a/CHO (Mus musculus (Mouse), UniProt Q60613); experiment: cAMP inhibition assay in mA2a/CHO cells, 10 μM adenosine; details: read-out: cAMP & FLIPR IC50 (nM) mA2a;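 further: compounds preincubated 30 min at 37 °C before the adenosine challenge, then 30 min further stimulation, readout after 60 min detection reagent incubation at room temperature in 384-well plates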
[3] = biological target: hA2a/CHO (Homo sapiens (Human), UniProt P29274); experiment: cAMP inhibition assay in hA2a/CHO cells, 10 μM adenosine; assay type: cell-based; details: read-out: cAMP & FLIPR IC50 (nM) hA2a;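 further: compounds added to cells 30 min ahead of adenosine, then a further 30 min at 37 °C with adenosine before cAMP detection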

Chains of the proteins cited; added tags and fusions are not shown.
UniProt P29275, whole entry: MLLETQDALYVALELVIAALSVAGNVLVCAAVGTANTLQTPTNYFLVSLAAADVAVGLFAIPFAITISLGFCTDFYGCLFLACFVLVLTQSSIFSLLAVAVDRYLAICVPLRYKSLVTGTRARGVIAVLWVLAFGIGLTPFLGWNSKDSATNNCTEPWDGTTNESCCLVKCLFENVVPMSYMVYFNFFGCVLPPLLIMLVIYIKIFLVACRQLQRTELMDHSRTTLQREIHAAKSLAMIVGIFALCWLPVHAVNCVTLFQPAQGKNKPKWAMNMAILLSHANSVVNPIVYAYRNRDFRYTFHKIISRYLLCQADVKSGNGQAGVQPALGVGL
UniProt Q60613, whole entry: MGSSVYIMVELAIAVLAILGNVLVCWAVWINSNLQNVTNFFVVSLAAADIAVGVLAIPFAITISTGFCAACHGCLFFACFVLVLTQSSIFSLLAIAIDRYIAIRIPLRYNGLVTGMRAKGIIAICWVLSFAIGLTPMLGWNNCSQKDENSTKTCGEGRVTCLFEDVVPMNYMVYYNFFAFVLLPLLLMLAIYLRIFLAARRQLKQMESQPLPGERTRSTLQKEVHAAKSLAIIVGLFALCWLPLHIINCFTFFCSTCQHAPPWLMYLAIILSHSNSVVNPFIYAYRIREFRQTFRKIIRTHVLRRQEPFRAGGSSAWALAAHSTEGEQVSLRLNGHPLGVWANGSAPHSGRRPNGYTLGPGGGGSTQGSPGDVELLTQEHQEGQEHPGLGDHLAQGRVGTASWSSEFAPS

**Q.** What does the source list for `CN1CCCC1CNC(=O)c1nc(-c2ccc3ncc(Cl)n3c2)c(-c2ncco2)nc1N` (stereo in doubt) [Cmpd. 209, 3-amino-6-[3-chloroimidazo[1,2-a]pyridin-6-yl]-N-[[(2S)-1-methylpyrrolidin-2-yl]methyl]-5-(1,3-oxazol-2-yl)pyrazine-2-carboxamide]?
**A.** IC50 [1]: 1040 nM; IC50 [2]: 99 nM; IC50 [3]: 19 nM

Reference: patent publication US10898481B2 (priority 2018, dated 2021)
